Laboratory results published in PubChem BioAssay AID504408 (Broad Institute, 2011).
The list shows a part of the results, in another mix than the full data. Some salts or complexes appear as unconnected parts, following the source record. Active and inactive are the calls of the source.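 Rule for the calls: active = mean replicate activation of at least 50% with a set share of replicates each reaching 50%; inconclusive = only one of those two conditions met; inactive = mean below 50% and too few replicates reaching it.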

Assay: HSF-1 response element luciferase induction – NIH3T3-HGL cells, MG132 stress, luminescence, single point, primary screen (AID 504408);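 note: 0% = median of the neutral control wells and 100% = twice that signal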
Settings: NIH3T3-HGL HSF-1 luciferase reporter, MG132, 8 h; at 9 µM; active compounds read high; 100% = twice DMSO control signal

| Structure (SMILES) | activation |
| --- | --- |
| CP(=O)(Nc1ccccc1F)Oc1ccccc1 (stereo not given) | inactive: -86.3% |
| CC(C)c1ccc(OP(C)(=O)Nc2ccc(SC(F)(F)F)cc2)cc1 (stereo not given) | inactive: 27.7% |
| COc1ccc2c(c1O)-c1c(O)c(OC)cc3c1[C@H](C2)[N+](C)(C)CC3.O=[N+]([O-])c1cc([N+](=O)[O-])c([O-])c([N+](=O)[O-])c1[O-] | inactive: -5.06% |
| O=C(OC1CN2CCC1CC2)c1ccc([N+](=O)[O-])cc1 (stereo not given) | inactive: 5.36% |
| O=C(OCCN1CCN(CCOCc2ccccc2)CC1)C(O)(c1ccccc1)c1ccccc1 | inactive: -4.61% |
| CCOC(=O)c1ccc(NP(C)(=O)Oc2ccc(F)cc2)cc1 (stereo not given) | inactive: 11.2% |
| COc1ccc(OP(C)(=O)Nc2ccc(SC(F)(F)F)cc2)cc1 (stereo not given) | inactive: 45.5% |
| CP(=O)(Nc1ccccc1)Oc1ccc(F)cc1 (stereo not given) | inactive: -14.8% |
| CCCCCOc1ccc(NP(C)(=O)Oc2ccc(Cl)cc2Cl)cc1 (stereo not given) | inactive: 10.7% |
| O=[N+]([O-])c1cc([N+](=O)[O-])c(OC2CCCCC2O)c([N+](=O)[O-])c1 (stereo not given) | inactive: -16% |
| CCN(CC)CCCOC(=O)C(O)(c1ccccc1)C1CCCCC1 (stereo not given) | inactive: 7.38% |
| CN(C)CCOC(=O)C(O)(c1ccccc1)C1CCCCC1 (stereo not given) | inactive: -0.71% |
| COc1ccc(NP(C)(=O)Oc2ccccc2OC)cc1 (stereo not given) | inactive: 2.76% |
| COc1ccc(OP(C)(=O)Nc2cccc(Br)c2)cc1 (stereo not given) | inactive: 36.9% |
| O=[N+]([O-])c1ccc(OP2(=O)COCCO2)cc1 (stereo not given) | inactive: 9.93% |
| O=[N+]([O-])c1cc([N+](=O)[O-])c(NCC2CCS(=O)(=O)C2)c([N+](=O)[O-])c1 (stereo not given) | inactive: -27.1% |
| Cc1cc(-c2cccc3ccccc23)c(C)cn1.O=[N+]([O-])c1cc([N+](=O)[O-])c(O)c([N+](=O)[O-])c1 | inactive: -9.03% |
| CCOP(C)(=S)SCC(=O)NC(C)(CC)C(=O)O (stereo not given) | inactive: 20.3% |
| CP(=O)(Nc1ccc(SC(F)(F)F)cc1)Oc1ccc(F)cc1 (stereo not given) | inactive: -15.2% |
| Cc1ccccc1NP(C)(=O)Nc1ccccc1C | inactive: 22.8% |
| CP(=O)(Nc1ccc2c(c1)OCCO2)Oc1ccccc1 (stereo not given) | inactive: -18.6% |
| COc1ccccc1OP(C)(=O)Nc1c(C)n(C)n(-c2ccccc2)c1=O (stereo not given) | inactive: 8.43% |

| Structure (SMILES) | activation |
| --- | --- |
| O=C(OCCCN1CCCC1)C(O)(c1ccccc1)C1CCCCC1 (stereo not given) | inactive: -11.6% |
| CP(=O)(Oc1ccccc1)N1CCOC1=O (stereo not given) | inactive: -15.6% |
| CCc1ccc(OP(C)(=O)Nc2cccnc2)cc1 (stereo not given) | inactive: -3.96% |
| CCN(CC)CC(O)COC(=O)C(O)(c1ccccc1)C1CCCCC1 (stereo not given) | inactive: 30.2% |
| COc1ccc(OP(C)(=O)Nc2ccc(Br)cc2)cc1 (stereo not given) | inactive: 16.1% |
| CN(C)C(=O)c1c([N+](=O)[O-])cc([N+](=O)[O-])cc1[N+](=O)[O-] | inactive: 48.5% |
| COc1ccccc1OP(C)(=O)Nc1ccccc1Br (stereo not given) | inactive: 5.83% |
| CC(C)(C)c1ccc(OP(C)(=O)O)cc1 | inactive: 5.36% |
| CP(=O)(Nc1ccc(Cl)cc1)Oc1ccc(F)cc1 (stereo not given) | inactive: 16.8% |
| CCOC(=O)c1ccc(NP(C)(=O)Oc2ccc(Cl)cc2)cc1 (stereo not given) | inactive: 15.5% |
| CP(=O)(OC12CC3CC(CC(C3)C1)C2)OC12CC3CC(CC(C3)C1)C2 | inactive: -10.2% |
| Nc1ccc2c(ccc3cccnc32)n1.O=[N+]([O-])c1cc([N+](=O)[O-])c(O)c([N+](=O)[O-])c1 | inactive: -9.75% |
| COc1ccccc1OP(C)(=O)Nc1ccc(C)c(C)c1 (stereo not given) | inactive: 15.2% |
| CCCCCCCCCCCCCCCC1C[N+](C)(C)CCOP(C)(=O)O1 (stereo not given) | inactive: -3.56% |
| CP(=O)(Nc1ccc(Cl)cc1Cl)Oc1ccccc1 (stereo not given) | inactive: 7.14% |
| Cc1nc2ccc3ccccc3c2o1.O=[N+]([O-])c1cc([N+](=O)[O-])c(O)c([N+](=O)[O-])c1 | inactive: 43.7% |
| COc1ccc(OP(C)(=O)Nc2ccccn2)cc1 (stereo not given) | inactive: 12% |
| CN(C)CCOC(=O)C(O)(c1ccccc1)C1CCCC1 (stereo not given) | inactive: 0.824% |
| COc1ccccc1OP(C)(=O)Nc1ccc(Br)cc1 (stereo not given) | inactive: 4.69% |
| CP(=O)(Nc1ccccn1)Oc1ccccc1 (stereo not given) | inactive: -5.5% |
| COc1ccccc1OP(C)(=O)Nc1ccc(C)cc1C (stereo not given) | inactive: 0.631% |
| CCc1ccc(OP(C)(=O)O)cc1 | inactive: -12% |

| Structure (SMILES) | activation |
| --- | --- |
| Cc1c(NP(C)(=O)Oc2ccc(C(C)C)cc2)c(=O)n(-c2ccccc2)n1C (stereo not given) | inactive: -12% |
| CCN(CC)CCCOC(=O)C(O)(c1ccccc1)c1ccccc1 | inactive: 7.38% |
| O=[N+]([O-])c1ccc2c(c1)C=Nc1ccccc1O2 | inactive: 10.1% |
| CC(C)(C)c1ccc(OP(C)(=O)Nc2ccc(SC(F)(F)F)cc2)cc1 (stereo not given) | inactive: 24.3% |
| Cc1cccc(C)c1OP(C)(N)=O (stereo not given) | inactive: -8.73% |
| O=[N+]([O-])c1cc([N+](=O)[O-])c(Nc2cccnc2)c([N+](=O)[O-])c1 | inactive: 23.1% |
| Cc1cc(C)cc(OP(C)(N)=O)c1 (stereo not given) | inactive: -13.7% |
| COc1ccccc1OP(C)(=O)Nc1cc(Cl)ccc1C (stereo not given) | inactive: 5.52% |
| COc1ccc(OP(C)(=O)Nc2cccc(F)c2)cc1 (stereo not given) | inactive: -5.32% |
| COc1ccccc1OP(C)(=O)Nc1ccc(C)cc1 (stereo not given) | inactive: -1.42% |
| Cc1ccc(NP(C)(=O)Oc2ccccc2)c(C)c1 (stereo not given) | inactive: 13.5% |
| CCOC(=O)c1ccc(NP(C)(=O)Oc2ccccc2)cc1 (stereo not given) | inactive: 13.1% |
| CP(=O)(Nc1ccccc1Br)Oc1ccccc1 (stereo not given) | inactive: 18.1% |
| COc1ccccc1OP(C)(=O)Nc1ccccc1 (stereo not given) | inactive: -0.746% |
| CP(=S)(Nn1cnnc1)Oc1ccccc1 (stereo not given) | inactive: -4.68% |
| CP(=O)(NC(=O)Nc1ccccc1)Oc1ccccc1 (stereo not given) | inactive: -9.84% |
| CCc1ccc(OP(C)(=O)N2CCN(c3ccc([N+](=O)[O-])cc3)CC2)cc1 (stereo not given) | inactive: -0.881% |
| Cc1cc(C)cc(OP(C)(=O)Nc2ccc(SC(F)(F)F)cc2)c1 (stereo not given) | inactive: -11% |
| Cc1cccc(C)c1OP(C)(=O)Nc1ccc(SC(F)(F)F)cc1 (stereo not given) | inactive: 7.26% |
| CP(=O)(Nc1ccc(SC(F)(F)F)cc1)Oc1ccc(Cl)cc1 (stereo not given) | inactive: 4.58% |
| CP(=O)(Oc1ccccc1)OC(c1ccccc1)C(F)(F)F (stereo not given) | inactive: -5.14% |
| CP(=O)(Nc1ccccn1)Oc1ccc(Cl)cc1 (stereo not given) | inactive: -5.39% |

| Structure (SMILES) | activation |
| --- | --- |
| CCOC(=O)c1ccc(NP(C)(=O)Oc2ccc(OC)cc2)cc1 (stereo not given) | inactive: -15% |
| O=[N+]([O-])c1cc([N+](=O)[O-])c(O)c([N+](=O)[O-])c1.c1ccc(Oc2ccncc2)cc1 | inactive: -10.8% |
| CCOP(C)(=S)SCC(=O)NC(C)C(=O)O (stereo not given) | inactive: -7.63% |
| O=[N+]([O-])c1cc([N+](=O)[O-])c(-n2nnc3ccccc32)c([N+](=O)[O-])c1 | inactive: -6.3% |
| O=[N+]([O-])c1cc([N+](=O)[O-])c(-c2cnn(-c3ccccc3)c2)c([N+](=O)[O-])c1 | inactive: 11.7% |
| O=[N+]([O-])c1cc([N+](=O)[O-])c(Nc2nnnn2CCO)c([N+](=O)[O-])c1 | inactive: -2.46% |
| CCOC(=O)C(CC)C1=NC(C)(C)Cc2ccccc21.O=[N+]([O-])c1cc([N+](=O)[O-])c(O)c([N+](=O)[O-])c1 (stereo not given) | inactive: -4.97% |
| CCCOc1ccc(NP(C)(=O)Oc2ccc(Cl)cc2)cc1 (stereo not given) | inactive: 8.97% |
| CP(=O)(Nc1ccc(SC(F)(F)F)cc1)Oc1ccccc1 (stereo not given) | inactive: 39.2% |
| COc1ccccc1OP(C)(=O)Nc1c(C)cccc1C (stereo not given) | inactive: 9.8% |
| CN1CCCCC1COC(=O)C1(O)c2ccccc2CCc2ccccc21 (stereo not given) | inactive: -6.08% |
| O=C(O)c1cccc(Nc2c([N+](=O)[O-])cc([N+](=O)[O-])cc2[N+](=O)[O-])c1 | inactive: -21.4% |
| CC1=NCCc2c1[nH]c1ccccc21.O=[N+]([O-])c1cc([N+](=O)[O-])c(O)c([N+](=O)[O-])c1 | inactive: -11.9% |
| CCOC(=O)c1ccc(NP(C)(=O)Oc2cc(C)cc(C)c2)cc1 (stereo not given) | inactive: -2.92% |
| Cc1cc(C)cc(OP(C)(=O)Nc2ccc(C)cc2C)c1 (stereo not given) | inactive: 0.351% |
| COc1ccccc1OP(C)(=O)Nc1cccc(Br)c1 (stereo not given) | inactive: -45.2% |
| Cc1ccc(C)c(NP(C)(=O)Oc2ccccc2)c1 (stereo not given) | inactive: -1.61% |
| Cc1cc(C)cc(OP(C)(=O)Nc2ccccn2)c1 (stereo not given) | inactive: 25.9% |
| CP(=O)(Nc1cccc(Br)c1)Oc1ccccc1 (stereo not given) | inactive: 3.75% |
